Results taken from patent US20260382583A1, “LPA1 ANTAGONISTS FOR TREATING INTERSTITIAL LUNG DISEASE” (published 2026).

Tests used:
participants with IPF [1] = experiment: Phase 2 IPF cohort: efficacy (FVC, ppFVC), 26 weeks
Experimental: (§1) A total of 278 participants with IPF were randomized and 276 participants were treated as of […] analyses data cut-off (4 Aug. 2022). Male and female participants ≥40 years of age with IPF and percent predicted forced vital capacity (ppFVC) >40% and percent predicted DLCO (ppDLCO) >25%; diagnosed within 7 years of screening; having a centrally-read chest HRCT obtained at screening that was consistent with UIP or probable UIP, or having a lung biopsy consistent with UIP were eligible to enter the study. The mean baseline ppFVC for all subjects was 76.5%. In the primary IPF cohort, participants were randomized (1:1:1) to receive 30 mg or 60 mg Compound A or placebo (PBO) twice daily for 26 weeks. Participants were stratified by standard of care (SoC) IPF therapy (pirfenidone versus nintedanib versus none) and region (Japan versus Rest of World) at randomization.
The primary objective of the study was to determine the rate of change in ppFVC from baseline to Week 26. The primary objective was evaluated with a two estimand framework to handle the intercurrent event of dose reduction to 10 mg BID or matching PBO when pre-specified low BP criteria is met. The primary estimand is adopted to estimate treatment effect when dose reduction is implemented. The supplementary estimand is adopted to estimate the effect of treatment without dose reduction.
Analysis Strategy: The primary estimand was to evaluate the efficacy of Compound A at 30 mg or 60 mg twice daily, compared to PBO in IPF participants who met the enrollment criteria, with or without use of SoC. The rate of decline in ppFVC (%) from baseline to Week 26 was compared using the difference between each dose and PBO as a population level summary regardless of dose reduction or treatment discontinuation for any reason (treatment policy strategy).
Analysis Strategy: The supplementary estimand for the primary objective is to evaluate the efficacy of Compound A at 30 mg or 60 mg twice daily without dose reduction, compared to the PBO in IPF subjects who met the enrollment criteria, with or without use of SoC. […]

participants with IPF [2] = experiment: Phase 2 IPF cohort: safety and blood pressure monitoring
Experimental: as §1
Blood Pressure Monitoring: Based on the pre-specified low BP safety monitoring and criteria specified in the protocol, those on 60 mg had the lowest frequencies of orthostatic intolerance, orthostatic hypotension, or pre-specified symptomatic or asymptomatic low BP criteria. In the overall population, the following orthostatic intolerance, orthostatic hypotension, or the symptomatic or asymptomatic low BP events were observed: • Orthostatic intolerance observed in 19 (6.9%) participants. • PBO: 7 (7.6%); 30 mg: 10 (11.0%); 60 mg: 2 (2.2%) • Orthostatic hypotension observed in asymptomatic low BP in 54 (19.6%) participants. Note that orthostatic hypotension is defined as a drop in SBP of ≥20 mmHg or DBP of ≥10 mmHg with an assumption of an upright posture from either supine or seated to upright position. • PBO: 19 (20.7%); 30 mg: 21 (23.1%); 60 mg: 14 (15.1%) • Orthostatic hypotension observed in symptomatic low BP in 21 (7.5%) participants. • PBO: 7 (7.6%); 30 mg: 9 (9.9%), 60 mg: 5 (5.4%) • Asymptomatic low blood pressure observed in 59 (21.4%) of participants. • PBO: 20 (21.7%); 30 mg: 22 (24.2%); 60 mg: 17 (18.3%) • Symptomatic low blood pressure observed in 27 (9.8%) participants. • PBO: 10 (10.9%); 30 mg: 11 (12.1%); 60 mg: 6 (6.5%) • Dose reductions to Compound A 10 mg BID vs. matching PBO were implemented due to protocol-defined low BP criteria (shown below) in 18 (6.5%) participants and approximately evenly distributed across arms. • PBO: 5 (5.4%); 30 mg: 7 (7.7%); 60 mg: 6 (6.5%)
Patient experiences any of the following, confirmed by retest within 15 minutes: • Seated systolic blood pressure <85 mmHg • Seated diastolic blood pressure <55 mmHg • Orthostatic hypotension […]

CCCN(C)C(=O)OCc1c(-c2ccc(O[C@H]3CCC[C@H](C(=O)O)C3)c(C)n2)nnn1C
Efficacy vs PBO (participants with IPF [1]; 30 mg BID, overall population, data not shown): did not demonstrate efficacy compared to PBO | Treatment differences in rate of change in ppFVC with and without background antifibrotic (participants with IPF [1]; IPF cohort, FIGS. 11A and 11B): consistent between both groups | Impact on FVC compared with PBO (participants with IPF [1]; alone or on background nintedanib or pirfenidone): favorable impact on FVC compared with PBO | Clinical consequence of Day 1 postdose SBP reductions (participants with IPF [2]; 30 mg and 60 mg, Day 1): not associated with any clinical sequelae and were self-limited in nature | Asymptomatic low blood pressure (participants with IPF [2]; 60 mg BID): 17 (18.3) n (%) | Risk of orthostatic intolerance, orthostatic hypotension, orthostatic tachycardia, or symptomatic or asymptomatic low BP vs PBO (participants with IPF [2]; 60 mg BID): not associated with any increased risk | Frequencies of orthostatic intolerance, orthostatic hypotension, or low BP criteria (participants with IPF [2]; 60 mg BID, compared with PBO and 30 mg): lowest frequencies
